Source: patent US9249124B2 (priority 2011, dated 2016)

Sequences of proteins named here, by UniProt entry; tags and fusion partners are left off. A change or cut given only in a name is not applied to a line headed by its entry.
UniProt O14965: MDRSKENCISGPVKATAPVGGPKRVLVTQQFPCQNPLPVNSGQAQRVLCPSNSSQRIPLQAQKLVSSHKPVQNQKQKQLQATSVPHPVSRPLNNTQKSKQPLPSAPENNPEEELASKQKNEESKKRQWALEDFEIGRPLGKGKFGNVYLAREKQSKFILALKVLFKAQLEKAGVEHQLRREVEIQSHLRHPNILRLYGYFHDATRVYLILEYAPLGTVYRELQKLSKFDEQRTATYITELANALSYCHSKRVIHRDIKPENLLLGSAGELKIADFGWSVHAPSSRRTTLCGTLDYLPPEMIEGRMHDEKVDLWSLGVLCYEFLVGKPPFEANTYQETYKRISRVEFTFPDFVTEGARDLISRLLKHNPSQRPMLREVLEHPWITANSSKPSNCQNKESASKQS

Key:
[1] = biological target: Aurora A (Homo sapiens (Human), UniProt O14965); test: biochemical
[2] = tested on: phosphorylation of serine 10 on Histone H3 (Aurora A substrate) in MDA-MB-468 breast cancer cells

CCOC(=O)c1ccc(Nc2nc(Cl)c(Cl)c(Nc3ccccc3C(=O)O)n2)cc1.Cl [Compound 3t, N^4-(2-Carboxyphenyl)-N^2-(4-ethoxycarbonylphenyl)-5,6-dichloropyrimidine-2,4-diamine hydrochloride]
IC50 [1]: 0.8 to 4 nM

CN(C)CCNC(=O)c1ccc(Nc2nccc(Nc3ccccc3Cl)n2)cc1 [Compound 9a, N^4-(2-Chlorophenyl)-N^2-[4-N-(2-morpholinoethyl)carbamoylphenyl]pyrimidine-2,4-diamine dihydro-chloride]
effect on Histone H3 phosphorylation levels (FIG. 13, words) [2]: mediocre to good improvements

O=C(NCCN1CCOCC1)c1ccc(Nc2nccc(Nc3ccccc3Cl)n2)cc1 [Compound 9b, N^4-(2-Chlorophenyl)-N^2-[4-N-(2-dimethylaminoethyl)carbamoylphenyl]-pyrimidine-2,4-diamine dihydro-chloride]
effect on Histone H3 phosphorylation levels (FIG. 13, words) [2]: mediocre to good improvements

CS(=O)(=O)c1ccc(Nc2nccc(Nc3ccccc3Cl)n2)cc1 [Compound 9d, N^4-(2-Chlorophenyl)-N^2-[4-(methylsulfonyl)phenyl]pyrimidine-2,4-diamine]
effect on Histone H3 phosphorylation levels (FIG. 13, words) [2]: mediocre to good improvements

Fc1cnc(Nc2ccc(N3CCOCC3)cc2)nc1Nc1ccccc1Cl [Compound 9j, N^4-(2-Chlorophenyl)-N^2-[4-(N-morpholino)phenyl]-5-fluoropyrimidine-2,4-diamine]
effect on Histone H3 phosphorylation levels (FIG. 13, words) [2]: greatly improved the ability to suppress Histone H3 phosphorylation

Clc1ccccc1Nc1ccnc(Nc2ccc(-c3nnn[nH]3)cc2)n1 [Compound 13a, N^4-(2-Chlorophenyl)-N^2-[4-(2H-tetrazol-5-yl)phenyl]pyrimidine-2,4-diamine hydrochloride]
effect on Histone H3 phosphorylation levels (FIG. 13, words) [2]: did not improve activity

Fc1cnc(Nc2ccc(-c3nnn[nH]3)cc2)nc1Nc1ccccc1Cl [Compound 13b, N^4-(2-Chlorophenyl)-N^2-[4-(2H-tetrazol-5-yl)phenyl]-5-fluoropyrimidine-2,4-diamine hydrochloride]
effect on Histone H3 phosphorylation levels (FIG. 13, words) [2]: did not improve activity

Clc1ccccc1Nc1nc(Nc2ccc(-c3nnn[nH]3)cc2)ncc1Cl [Compound 13d, N^4-(2-Chlorophenyl)-N^2-[4-(2H-tetrazol-5-yl)phenyl]-5-chloropyrimidine-2,4-diamine hydrochloride]
effect on Histone H3 phosphorylation levels (FIG. 13, words) [2]: did not improve activity

Where a name gives a salt, the structure may show the parent alone.
